Laboratory results: patent publication US20250145625A1, “PYRAZOLOPYRIMIDINE DERIVATIVE AND ANTICANCER PHARMACEUTICAL COMPOSITION CONTAINING SAME AS ACTIVE INGREDIENT” (KOREA RESEARCH INSTITUTE OF CHEMICAL TECHNOLOGY, priority 2021, published 2025)

Experiments:
[1] = test system: HCT116 colon cancer cell line; assay: Cytotoxicity in TTK-expressed HCT116 cells; conditions: read-out: IC50 (nM) in HCT116, 5 days
Experimental: To determine the cytotoxicity of a compound represented by Chemical Formula 1 according to the present invention to HCT116 cells, the following test was conducted.
HCT116 colon cancer cell line purchased from ATCC was inoculated into each well of a 96-well plate at a volume of 90 μL containing 2,000 cells. Thereafter, an example compound of the present invention was added to respective wells at concentrations of […], 3 μM, 1 μM, 0.3 μM, 0.1 μM, and 0 μM, and the cells were cultured in a cell incubator at 37° C. for 5 days. After 5 days, the number of cells was measured by CCK8 test method, and the cytotoxicity was determined by calculating the IC50 value for cytotoxicity of each compound.

[2] = test system: MDA-MB-231 triple negative breast cancer cell line; assay: Cytotoxicity in TTK-expressed MDA-MB-231 cells; conditions: read-out: IC50 (nM) in MDA-MB-231, 5 days
Experimental: To determine the cytotoxicity of a compound represented by Chemical Formula 1 according to the present invention to MDA-MB-231 cells, the following test was conducted.
MDA-MB-231 triple negative breast cancer cell line purchased from ATCC was inoculated into each well of a 96-well plate at a volume of 90 μL containing 2,000 cells. Thereafter, an example compound of the present invention was added to respective wells at concentrations of 10 μM, 3 μM, 1 μM, 0.3 μM, 0.1 μM, and 0 μM, and the cells were cultured in a cell incubator at 37° C. for 5 days. Five days later, 10 μL of Cyto X solution (manufacturer: LPS Solution) was added to each of the wells, and the absorbance was measured at 450 nm using an Epoch microplate spectrophotometer (manufacturer: BioTek Instruments Inc.) according to the product's user guide. For cytotoxicity, the IC50 value for cytotoxicity of each compound was calculated by quantifying the number of cells using the measured value.

Compound `COc1cc(N2CCOCC2)ccc1Nc1nc(NC2CCN(C)CC2)c2c(-c3cnn(C)c3)n[nH]c2n1` has an IC50 [1] greater than 1000 nM and an IC50 [2] of 500 to 1000 nM.
